pIC50: −log10 of the molar value.
The molecules below were run against T1, human 11β-HSD1 (Homo sapiens, UniProt P28845) (assay: Scintillation Proximity Assay: inhibition of purified 11β-HSD1 (Biological Test Example 1)). Details: read-out: Biological Test Example 1 (IC50 class); purified recombinant 11β-HSD1, SPA.

By UniProt entry, the sequences of proteins in these tests, tags left out.
UniProt P28845, whole entry: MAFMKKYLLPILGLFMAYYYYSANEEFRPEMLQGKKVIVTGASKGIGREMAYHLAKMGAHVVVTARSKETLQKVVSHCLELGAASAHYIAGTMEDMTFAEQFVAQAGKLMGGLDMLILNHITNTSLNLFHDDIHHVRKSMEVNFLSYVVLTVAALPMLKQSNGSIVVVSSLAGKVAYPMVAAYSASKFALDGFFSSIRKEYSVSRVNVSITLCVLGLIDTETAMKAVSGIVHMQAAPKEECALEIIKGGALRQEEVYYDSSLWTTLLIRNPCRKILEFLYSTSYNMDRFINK

pIC50 | Structure (SMILES)
> 7.30 | COC(=O)CC1CC2(CCN(C(=O)NC3C4CC5CC(C4)CC3C5)CC2)c2ccccc21 (single isomer, unassigned)

Each molecule was assayed against T1, human 11β-HSD1 (assay: Inhibition of a microsomal preparation of 11β-HSD1, SPA (Biological Test Example 2)). Details: read-out: Biological Test Example 2 (IC50 class).
Type: biochemical

Structure (SMILES) | pIC50
O=C(O)CC1CC2(CCN(C(=O)NC3C4CC5CC3CC(F)(C5)C4)CC2)c2c(Br)cccc21 (single isomer, unassigned) | > 7.30
O=C(O)CC1CC2(CCN(C(=O)OC3C4CC5CC(C4)CC3C5)CC2)c2c(Br)cccc21 (single isomer, unassigned) | > 7.30

Next, values leading:

pIC50 | Structure (SMILES)
> 7.30 | CCOC(=O)C=C1CC2(CCN(C(=O)NC3C4CC5CC(C4)CC3C5)CC2)c2c(Br)cccc21 (single isomer, unassigned)
> 7.30 | CNCCN(C)C(=O)CC1CC2(CCN(C(=O)NC3C4CC5CC(C4)CC3C5)CC2)c2c(Br)cccc21 (single isomer, unassigned)
> 7.30 | O=C(O)CC1CC2(CCN(C(=O)NC3C4CC5CC(C4)CC3C5)CC2)c2c(Br)cccc21 (single isomer, unassigned)
